Data: patent US20070218117A1, “Supra molecular construct for delivery of interferon to a mammal” (SDG, Inc., priority 2006, published 2007)

Key:
[1] = test system: double stranded RNA dependent protein kinase (PKR) gene; experiment: Induction of PKR mRNA in liver and spleen of mice after subcutaneous dosing, real time quantitative PCR; format: in vivo, mouse (C57B16 mice)
Method: The efficacy of HDV-interferon alpha was evaluated in a mouse model having a genetic marker response to the hepatic effect of interferon. C57B16 mice were obtained from Jackson Laboratory and a breeding colony was established at Cleveland MetroHealth Center, Cleveland, Ohio. Mice were obtained from the breeding colony. Two groups of mice, a test group and a control group, were treated. The test group received Interferon+HDV, while the control group received Interferon alone. HDV-Interferon comprised 100 mcg HDV to 10 mcg Interferon alpha. HDV was supplied by Hepasome Pharmaceuticals and Roeferon was the source of the interferon alpha. The HDV and interferon alpha were allowed to equilibrate for 12 hours prior to injection into the mice. Mice from both groups were dosed with 100,000 U/kg body wt. To test the timing of response to IFN, Roferon was subcutaneously injected into the mice. The mice were sacrificed at 6 hours after dosing. The spleen and liver of the sacrificed rats were obtained for analysis. […] The assay used real time quantitative PCR (polymerase chain reaction) to assay the level of PKR messenger ribonucleic acid (mRNA). […] The produced cDNAs were subjected to semi-quantitative PCR, the 6 hour time point was selected for the HDV experiments. […] Real time quantitative PCR was performed on the produced cDNAs using cybr green technology. […]

hepatitis C virus = details: chronic hepatitis C; treatment with interferon alone; cited from earlier work

interferon alpha: Roeferon was the source of the interferon alpha; control group received Interferon alone
relative expression level in the spleen compared to the relative expression level in the liver ([1]; PKR mRNA, mice dosed 100,000 U/kg subcutaneously, sacrificed at 6 hours, FIG. 12a): approximately twice | increase in PKR activation relative to a baseline ([1]; hepatic PKR activation, mouse model, FIG. 13): ~5 fold | sustained response, share of subjects (hepatitis C virus): less than 15%
